Experimental findings from PMC5972519 (Journal of pharmaceutical and biomedical analysis, 2016) are described below.

Each structure is given as a SMILES string.

This series can be described thus: Plasma pharmacokinetics of. The conditions noted are these: Chronic Arm / Acute Arm, 30 min post dosing. The class given is in vivo, Wistar rat.

As to `CNC1(c2ccccc2Cl)CCCCC1=O` (racemic) [(R,S)-Ket, (R,S)-Ketamine, reference compound], the “Plasma concentration Ratio (C/A)” value was 0.93.
